Test results taken from ChEMBL document CHEMBL2163219, “Synthesis and evaluation of aryl-naloxamide opiate analgesics targeting truncated exon 11-associated μ opioid receptor (MOR-1) splice variants” (J Med Chem, 2012).

Sequences of proteins named here, by UniProt entry; tags and fusion partners are left off.
UniProt P32300, whole entry: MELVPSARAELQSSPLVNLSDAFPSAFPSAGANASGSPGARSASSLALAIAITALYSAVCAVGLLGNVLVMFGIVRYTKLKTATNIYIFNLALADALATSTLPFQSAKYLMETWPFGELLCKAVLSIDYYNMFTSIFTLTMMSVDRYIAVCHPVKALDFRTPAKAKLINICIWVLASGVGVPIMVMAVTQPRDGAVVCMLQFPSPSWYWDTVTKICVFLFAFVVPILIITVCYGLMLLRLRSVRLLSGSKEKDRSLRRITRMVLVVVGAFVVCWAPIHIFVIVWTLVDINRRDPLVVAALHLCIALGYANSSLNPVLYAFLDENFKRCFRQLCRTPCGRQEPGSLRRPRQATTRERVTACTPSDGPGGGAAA

Biological target: Delta-type opioid receptor (Mus musculus, UniProt P32300)
Experiment: Displacement of [125I]-BNtxA from mouse cloned DOR-1 expressed in CHO cell membrane after 90 mins

| SMILES | Ki [µM] |
| --- | --- |
| C=CCN1CC[C@]23c4c5ccc(O)c4O[C@H]2[C@H](NC(=O)CCCCCCCCCCCC)CC[C@@]3(O)[C@H]1C5 | 0.0152 |
| C=CCN1CC[C@]23c4c5ccc(O)c4O[C@H]2[C@H](NC(=O)c2ccc(-c4ccccc4)cc2)CC[C@@]3(O)[C@H]1C5 | 0.0192 |
